Experiment: Octanol/water partition coefficient (Log P)
Type: physicochemical
Settings: partition coefficient octanol/PBS buffer 0.1× pH 7.4, triplicate
Protocol: Pharm. Hung. 62 (1-2): 55-64, wherein 2 phases are used, an aqueous phase comprising a buffer solution PBS 0.1× pH 7.4 that is saturated with an n-octanol solution that comprises the organic phase.
Stock solutions at 1.0 mg/mL of each quinoline being studied were prepared in PBS buffer 0.1× pH 7.4 saturated in octanol. […] Starting from these solutions, dilutions were made for a range concentration of between 1.0 mg/mL and 100 μg/mL to establish their maximum absorbance in the UV-visible region.
Then the tested quinolines were dissolved in PBS 0.1× pH 7.4 saturated in n-octanol and agitated for 30 min. at room temperature. Subsequently, this emulsion was left to settle for 48 h and a centrifugation at 3,000 rpm for 10 minutes was carried out to separate the phases. Both the octanol/water partition coefficient and Log P were established using the difference in the absorbance in the UV-visible region for each compound using equation 1:
[THQ in octanol]=[THQ start]−[THQ buffer] Éq. 1:
The concentrations for THQ start are established using equation 2: […]
Subsequently, the P quotient in established between both phases as described by equation 3: […]
Finally the partition coefficient is established by Log P.
For this test 2 controls were used: clidinium bromide that is a quaternary amine that is not liposoluble, and sodium thiopental, which is a very liposoluble barbituric anaesthetic. […]

Substance: 2-(9-aminophenyl)quinoline [THQ 56]
- Log P (experimental): 0.293 + 0.002
